Only a part is listed here, and it is no random draw. Results filed as inconclusive are left out. For part of these data: Measured potencies and affinities stand elsewhere. Active and inactive are the calls of the source. Unless noted, calls come from the whole dose curve; as a rule, active = well fitted curve in the direction sought with a large enough effect; inconclusive = small, poorly fitted or top-dose-only effect, or another doubt; inactive = no such curve, though single readings can be large; an effect the other way counts as inactive or inconclusive.
How the values were obtained:
[1] = biological target: Ubiquitin carboxyl-terminal hydrolase 1 (Homo sapiens) (UniProt O94782); assay: Inhibitors of USP1/UAF1: Pilot qHTS (AID 504865); conditions: purified USP1/UAF1, Ub-rhodamine cleavage fluorescence; at 114 µM (top of the series);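 note: rhodamine fluorescence freed from ubiquitin-rhodamine substrate followed over time; top concentration of the series differs between compounds; % is set by controls: 0 for no effect and ±100 for the full control effect; nearly all actives have a fitted effect of over 35% in size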
[2] = biological target: Voltage-gated inwardly rectifying potassium channel KCNH2 (Homo sapiens) (UniProt Q12809); assay: qHTS Assay for Small Molecule Inhibitors of the Human hERG Channel Activity (AID 588834); conditions: U2OS BacMam hERG, FluxOR thallium flux fluorescence; at 46.1 µM (top of the series) unless noted;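 note: U2OS cells transduced with hERG by BacMam; top concentration of the series differs between compounds; % is set by controls: 0 for no effect and ±100 for the full control effect; lower thallium flux fluorescence means stronger hERG block; nearly all actives have a fitted effect of over 50% in size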
[3] = biological target: Luciferin 4-monooxygenase (Photinus pyralis) (UniProt P08659); assay: Biochemical firefly luciferase enzyme assay for NPC (AID 624030);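 note: purified P. pyralis luciferase at 10 nM with luciferin and ATP substrate; 0% = DMSO and -100% = full luciferase inhibition by PTC124 control; nearly all actives have a fitted effect of over 70% in size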; conditions: purified P. pyralis luciferase, luminescence, 5 min; at 58.6 µM (top of the series) unless noted
How it was run: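 Purified P. pyralis luciferase at 10 nM in 50 mM Tris Acetate (final), luminescence read within 5 minutes of enzyme addition to compounds. Activity normalised to PTC124 versus DMSO; concentration-response curves classed by r2, magnitude and activity.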

The chains behind the UniProt entries cited, without tags or fusion partners. Where a name states a change or a piece, a line headed by the entry shows the natural chain unless it says otherwise.
UniProt O94782: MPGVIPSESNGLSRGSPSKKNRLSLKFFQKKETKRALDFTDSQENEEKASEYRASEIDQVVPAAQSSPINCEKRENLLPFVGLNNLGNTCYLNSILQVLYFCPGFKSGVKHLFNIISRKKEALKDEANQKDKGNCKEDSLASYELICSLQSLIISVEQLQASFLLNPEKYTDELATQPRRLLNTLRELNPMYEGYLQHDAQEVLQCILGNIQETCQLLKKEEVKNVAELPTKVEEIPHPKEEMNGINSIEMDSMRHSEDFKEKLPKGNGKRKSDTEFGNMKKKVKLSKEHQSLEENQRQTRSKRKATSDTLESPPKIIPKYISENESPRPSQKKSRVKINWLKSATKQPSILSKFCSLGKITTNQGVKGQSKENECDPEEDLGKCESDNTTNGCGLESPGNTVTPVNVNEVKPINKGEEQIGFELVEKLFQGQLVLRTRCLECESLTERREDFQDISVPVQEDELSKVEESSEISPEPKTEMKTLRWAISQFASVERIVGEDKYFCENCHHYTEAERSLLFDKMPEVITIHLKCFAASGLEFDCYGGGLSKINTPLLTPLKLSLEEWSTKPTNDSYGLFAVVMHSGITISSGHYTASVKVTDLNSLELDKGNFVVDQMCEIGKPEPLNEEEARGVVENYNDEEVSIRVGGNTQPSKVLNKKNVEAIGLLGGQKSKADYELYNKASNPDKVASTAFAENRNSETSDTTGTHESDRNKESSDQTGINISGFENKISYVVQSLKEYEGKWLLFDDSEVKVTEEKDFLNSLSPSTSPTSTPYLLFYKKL
UniProt Q12809: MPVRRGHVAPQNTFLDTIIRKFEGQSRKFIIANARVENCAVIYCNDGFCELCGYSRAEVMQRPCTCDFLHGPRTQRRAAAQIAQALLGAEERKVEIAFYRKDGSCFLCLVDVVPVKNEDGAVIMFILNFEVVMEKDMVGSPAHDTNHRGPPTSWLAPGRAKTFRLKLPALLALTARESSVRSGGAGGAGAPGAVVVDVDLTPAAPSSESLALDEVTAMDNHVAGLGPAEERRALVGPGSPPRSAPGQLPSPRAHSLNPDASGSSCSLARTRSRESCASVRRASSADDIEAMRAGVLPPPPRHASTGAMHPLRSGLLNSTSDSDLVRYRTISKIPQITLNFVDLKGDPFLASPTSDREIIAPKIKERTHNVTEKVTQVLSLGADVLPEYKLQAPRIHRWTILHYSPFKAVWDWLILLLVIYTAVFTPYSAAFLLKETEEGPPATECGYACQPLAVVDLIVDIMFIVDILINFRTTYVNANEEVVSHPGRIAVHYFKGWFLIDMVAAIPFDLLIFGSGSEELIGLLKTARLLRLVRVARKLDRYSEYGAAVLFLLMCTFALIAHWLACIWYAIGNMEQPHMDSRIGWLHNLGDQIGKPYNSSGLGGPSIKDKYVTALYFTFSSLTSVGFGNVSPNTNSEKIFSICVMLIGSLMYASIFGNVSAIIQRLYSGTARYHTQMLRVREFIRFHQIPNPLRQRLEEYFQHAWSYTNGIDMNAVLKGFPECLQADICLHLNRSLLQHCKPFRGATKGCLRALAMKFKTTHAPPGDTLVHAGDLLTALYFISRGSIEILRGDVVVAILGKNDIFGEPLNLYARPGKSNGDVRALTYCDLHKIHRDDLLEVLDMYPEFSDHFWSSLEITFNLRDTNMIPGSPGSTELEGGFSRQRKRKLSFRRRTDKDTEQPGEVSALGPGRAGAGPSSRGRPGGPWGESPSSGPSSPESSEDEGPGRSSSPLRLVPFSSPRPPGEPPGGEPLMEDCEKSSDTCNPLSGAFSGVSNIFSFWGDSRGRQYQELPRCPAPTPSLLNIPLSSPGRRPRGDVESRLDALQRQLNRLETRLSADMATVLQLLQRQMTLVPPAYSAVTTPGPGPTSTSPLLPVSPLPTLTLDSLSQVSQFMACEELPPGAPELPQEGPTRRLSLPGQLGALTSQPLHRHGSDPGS
UniProt P08659, whole entry, looked up: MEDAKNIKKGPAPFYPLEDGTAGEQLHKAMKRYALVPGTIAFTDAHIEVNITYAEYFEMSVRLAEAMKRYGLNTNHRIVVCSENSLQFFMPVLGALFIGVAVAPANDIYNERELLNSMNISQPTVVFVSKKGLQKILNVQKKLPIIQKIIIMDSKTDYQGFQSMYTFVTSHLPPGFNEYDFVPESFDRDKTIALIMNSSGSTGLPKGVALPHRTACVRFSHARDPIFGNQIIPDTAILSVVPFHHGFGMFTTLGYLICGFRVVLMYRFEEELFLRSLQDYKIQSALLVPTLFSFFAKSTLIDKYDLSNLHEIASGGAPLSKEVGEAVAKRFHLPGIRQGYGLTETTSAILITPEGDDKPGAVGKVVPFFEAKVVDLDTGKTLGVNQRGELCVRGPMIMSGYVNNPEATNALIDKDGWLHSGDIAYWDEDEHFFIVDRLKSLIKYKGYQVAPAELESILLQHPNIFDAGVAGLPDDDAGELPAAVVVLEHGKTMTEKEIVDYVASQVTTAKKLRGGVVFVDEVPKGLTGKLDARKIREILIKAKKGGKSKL
UniProt A8B2U2: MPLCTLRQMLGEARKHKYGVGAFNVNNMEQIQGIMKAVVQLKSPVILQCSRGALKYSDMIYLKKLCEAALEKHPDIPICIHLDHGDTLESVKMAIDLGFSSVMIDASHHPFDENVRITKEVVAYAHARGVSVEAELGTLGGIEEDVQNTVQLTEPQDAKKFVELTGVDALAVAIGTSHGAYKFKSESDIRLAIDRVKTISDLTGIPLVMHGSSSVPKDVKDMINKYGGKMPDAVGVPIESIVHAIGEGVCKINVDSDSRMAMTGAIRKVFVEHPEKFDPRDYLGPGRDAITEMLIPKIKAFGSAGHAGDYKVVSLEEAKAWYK
UniProt P00883: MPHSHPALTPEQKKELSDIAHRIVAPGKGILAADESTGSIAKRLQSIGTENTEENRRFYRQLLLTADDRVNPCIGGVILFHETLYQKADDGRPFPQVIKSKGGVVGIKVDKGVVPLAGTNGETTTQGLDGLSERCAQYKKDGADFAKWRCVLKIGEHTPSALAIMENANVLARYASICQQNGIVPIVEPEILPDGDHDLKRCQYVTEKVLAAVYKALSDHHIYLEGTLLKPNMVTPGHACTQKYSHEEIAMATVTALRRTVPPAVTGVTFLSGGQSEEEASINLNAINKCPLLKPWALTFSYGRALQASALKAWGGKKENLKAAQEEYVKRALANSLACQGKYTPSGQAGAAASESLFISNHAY

[4] = S16 Schwann cell viability assay (CellTiter-Glo assay) (AID 624031); conditions: S16 rat Schwann cells viability, 24 h; at 57.5 µM (top of the series);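 note: native untransfected S16 rat Schwann cells; plate controls were DMSO-treated cells for no effect and cell-free wells for full effect; nearly all actives have a fitted effect of over 70% in size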
How it was run: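 Counter-screen for cytotoxicity: parental S16 rat Schwann cells lacking the PMP22 reporters, treated 24 h with compound, viability from cellular ATP by CellTiter-Glo luminescence, normalized to DMSO (0%) and no-cell wells.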

[5] = S16 Schwann cell PMP22 intronic element firefly luciferase assay (AID 624032); conditions: S16 rat Schwann cells, PMP22 element FLuc, 24 h; at 57.5 µM (top of the series);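 note: plate controls were DMSO for no effect and PTC124 positive control mean for full effect; nearly all actives have a fitted effect of over 30% in size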
[6] = S16 Schwann cell PMP22 intronic element beta-lactamase assay (AID 624044; calls by dose curve;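 note: 0% = DMSO and -100% = potassium clavulanate positive control; nearly all actives have a fitted effect of over 15% in size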); conditions: S16 rat Schwann cells, PMP22 element beta-lactamase FRET, 24 h; at 38.3 µM (top of the series)
[7] = qHTS Assay for Identifying Gametocytocidal Compounds (AID 743244);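 note: % is set by controls: 0 for no effect and ±100 for the full control effect; actives lower the fluorescent signal which means gametocytes are killed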; conditions: P. falciparum 3D7 stage III-V gametocytes, alamarBlue, 72 h; max response: active compounds read low
[8] = qHTS assay to identify small molecule inhibitors of chordoma cells - UCH-1 (AID 1259355); conditions: UCH-1 chordoma viability, CellTiter-Glo, 48 h, combination, with auranofin plus four topoisomerase inhibitors; at 46.1 µM (top of the series); note: % is set by controls: 0 for no effect and ±100 for the full control effect; nearly all actives have a fitted effect of over 55% in size
How it was run: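 Cells (800/well) were seeded and left overnight at 37 C, 5% CO2, then treated with drugs at 15 concentrations plus a combination mix of auranofin, camptothecin, doxorubicin, rubitecan and topotecan. Viability after 48hr was read by CellTiter-Glo luminescence.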

[9] = qHTS assay to identify small molecule inhibitors of chordoma cells - UCH-2 (AID 1259356); conditions: UCH-2 chordoma viability, CellTiter-Glo ATP luminescence, 48 h; at 46.1 µM (top of the series); note: % is set by controls: 0 for no effect and ±100 for the full control effect
[10] = P-glycoprotein substrates identified in KB-8-5-11 adenocarcinoma cell line, qHTS therapeutic library screen (AID 1346987); conditions: KB-8-5-11 (P-gp overexpressing) viability, CellTiter-Glo, 72 h; at 44.5 µM (top of the series) unless noted; note: % is set by controls: 0 for no effect and ±100 for the full control effect; nearly all actives have a fitted effect of over 65% in size
KB-3-1 = assay: Cytotoxic Profiling of Annotated Libraries Using Quantitative High-Throughput Screening (AID 1296008); conditions: Five cell lines viability, CellTiter-Glo ATP luminescence, 48-72 h, active compounds read low; note: % is set by controls: 0 for no effect and ±100 for the full control effect; nearly all actives have a fitted effect of over 60% in size
[11] = Drug repurposing screens with cells derived from glioblastoma tumor samples (AID 1345199); conditions: GBM patient neurospheres viability, ATP luminescence, 48 h; Potency: tumour line A; series mostly up to 46.1 µM; note: % is set by controls: 0 for no effect and ±100 for the full control effect; nearly all actives have a fitted effect of over 40% in size
How it was run: (§1)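 Four patient lines of CD133+ GBM neurospheres were screened at several concentrations; hits were retested in those lines plus three slower-growing GBM lines, using 48-hour treatment and ATP-based viability.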

astro = assay: as above; conditions: viability, ATP luminescence, 48 h; at 45.9 µM (top of the series) unless noted
How it was run: as §1

[12] = qHTS Assay for Inhibitors of Fructose-1,6-bisphosphate Aldolase from Giardia Lamblia: Giardia lamblia growth inhibition (AID 2785); conditions: Giardia lamblia trophozoite growth inhibition; at 38.3 µM (top of the series); note: % is set by controls: 0 for no effect and ±100 for the full control effect; nearly all actives have a fitted effect of over 70% in size
How it was run: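 G. lamblia WB trophozoites (100 cells/well) were grown with compound at 37C for 48 h in modified TYI-S-33 medium, pH 7.0. Growth was measured by ATPlite luminescence after 20 min at room temperature.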

[13] = qHTS Assay for Inhibitors of Fructose-1,6-bisphosphate Aldolase from Giardia Lamblia: Mammalian cellular toxicity (AID 2786); conditions: mammalian cell viability counter-screen; at 57.5 µM (top of the series);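 note: compound exposure lasted 48 h before reading; % is set by controls: 0 for no effect and ±100 for the full control effect; nearly all actives have a fitted effect of over 60% in size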
How it was run: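 CHO cells seeded at 250 cells/well with pin-tool-added compound, incubated 48 h at 37 °C, 5% CO2. Viability read as ATP content by ATPlite luminescence after 20 min.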

[14] = biological target: Fructose-bisphosphate aldolase (Giardia intestinalis (strain ATCC 50803 / WB clone C6)) (UniProt A8B2U2); assay: qHTS Assay for Inhibitors of Fructose-1,6-bisphosphate Aldolase from Giardia Lamblia: Primary screen confirmation (AID 2787); conditions: purified Giardia aldolase enzyme activity; at 57.5 µM (top of the series);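 note: aldolase product measured through coupled diaphorase step turning resazurin into fluorescent resorufin; % is set by controls: 0 for no effect and ±100 for the full control effect; nearly all actives have a fitted effect of over 45% in size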
How it was run: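 Confirmation of primary hits by qHTS up to 57.5 uM final compound. Enzyme at 40 nM with 30 uM ZnCl2, 10 min RT pre-incubation, then substrate/coupling/resorufin-forming detection mix for 20 min before fluorescence read at 525/598 nm.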

[15] = biological target: Fructose-bisphosphate aldolase A (Oryctolagus cuniculus) (UniProt P00883); assay: qHTS Assay for Inhibitors of Fructose-1,6-bisphosphate Aldolase from Giardia Lamblia: Rabbit FBPA Selectivity (AID 2794); conditions: Rabbit muscle FBPA enzyme inhibition, selectivity counter-screen; at 57.5 µM (top of the series); note: % is set by controls: 0 for no effect and ±100 for the full control effect; nearly all actives have a fitted effect of over 60% in size
How it was run: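 To triage Class I aldolase inhibitors, rabbit FBPA activity is followed through a glyceraldehyde-3-phosphate-linked enzyme cascade feeding AmpLite Red. Compounds (up to 57.5 uM final) sit 10 min with coupling enzymes before substrate; fluorescence is read 20 min later.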

[16] = qHTS Assay for Inhibitors of Fructose-1,6-bisphosphate Aldolase from Giardia Lamblia: Coupling assay counterscreen confirmation (AID 2795); conditions: GAPDH coupling enzyme counterscreen, biochemical; at 57.5 µM (top of the series); note: % is set by controls: 0 for no effect and ±100 for the full control effect; nearly all actives have a fitted effect of over 55% in size
How it was run: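 Compounds at up to 57.5 uM final tested against the coupling enzymes and resorufin-type fluorescent detection only, aldolase omitted. Ex 525 nm/em 598 nm read after 10 min enzyme-compound and 20 min substrate incubations, room temperature.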

O=C(OC1CN2CCC1CC2)c1ccccc1 (stereo not drawn)
inactive: activity change, negative = inhibition [1] -4.81% | activity change, negative = inhibition [2] 0.749% | activity change, negative = inhibition [3] -0.691% | activity change, negative = cytotoxicity [4] 4.74% | activity change, negative = inhibition [5] -4.06% | ratio activity, negative = inhibition [6] 2.98% | max response [7] 7.07% | activity, negative = inhibition [8] -6.1% | activity change, negative = inhibition [9] -0.949% | activity change, negative = cytotoxicity [10] 18.1% | max response (KB-3-1) 4.19% | Potency [11] | activity, negative = cell killing (astro) -16.2%

O=C(NC(Sc1ccncn1)C(Cl)(Cl)Cl)c1ccccc1 (stereo not drawn)
inactive: activity change, negative = inhibition [12] -12% | viability change, negative = toxicity [13] 6.81% | activity change, negative = inhibition [14] 1.59% | activity, negative = inhibition [15] -1.15% | activity change, negative = inhibition [16] -3.09%
